Our source for the Ki values is ChEMBL document CHEMBL1124573, “Alterations in the stereochemistry of the kappa-selective opioid agonist U50,488 result in high-affinity sigma ligands” (1989).

Protein sequences, listed by entry. Tags and fused reporters are not part of them. Lines headed by an entry give the natural chain unless they say otherwise; changes in a name come on top.
UniProt P61169, whole entry, looked up: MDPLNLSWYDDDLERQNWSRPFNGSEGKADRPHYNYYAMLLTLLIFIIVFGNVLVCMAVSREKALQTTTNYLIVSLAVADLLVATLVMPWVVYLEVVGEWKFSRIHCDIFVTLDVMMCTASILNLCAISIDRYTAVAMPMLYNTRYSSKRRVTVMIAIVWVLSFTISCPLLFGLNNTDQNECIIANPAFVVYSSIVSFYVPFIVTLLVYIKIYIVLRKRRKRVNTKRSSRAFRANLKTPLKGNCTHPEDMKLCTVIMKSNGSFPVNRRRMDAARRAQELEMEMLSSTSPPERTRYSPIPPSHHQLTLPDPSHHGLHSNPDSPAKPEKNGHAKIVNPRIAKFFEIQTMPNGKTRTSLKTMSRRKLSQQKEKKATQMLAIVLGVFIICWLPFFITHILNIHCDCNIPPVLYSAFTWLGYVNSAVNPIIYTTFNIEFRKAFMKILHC
UniProt P41144: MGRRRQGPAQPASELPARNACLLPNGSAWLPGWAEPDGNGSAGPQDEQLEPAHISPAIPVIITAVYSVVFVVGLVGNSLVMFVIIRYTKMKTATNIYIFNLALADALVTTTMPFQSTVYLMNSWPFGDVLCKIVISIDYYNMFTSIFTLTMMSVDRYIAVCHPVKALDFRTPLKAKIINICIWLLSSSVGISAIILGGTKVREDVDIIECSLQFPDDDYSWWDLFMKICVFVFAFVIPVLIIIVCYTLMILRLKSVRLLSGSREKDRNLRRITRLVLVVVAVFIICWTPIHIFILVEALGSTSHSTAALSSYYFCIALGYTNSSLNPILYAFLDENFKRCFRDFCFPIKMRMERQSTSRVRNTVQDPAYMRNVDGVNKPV

Experiment [1] addresses D(2) dopamine receptor (Rattus norvegicus, UniProt P61169). Kind of experiment: Compound was evaluated for binding affinity towards Dopamine receptor D2 using [3H]SULP in rat.
Experiment [2] deals with T1, Kappa-type opioid receptor (Cavia porcellus, UniProt P41144). Briefly: Compound was evaluated for binding affinity towards kappa opioid receptor using [3H](-)-U-69,593 in guinea pig ileum.
The target of experiment [3] is T1, Kappa-type opioid receptor. Briefly: Compound was evaluated for binding affinity towards kappa opioid receptor using [3H]-BREM in guinea pig ileum.
For experiment [4], the target named is T1, Kappa-type opioid receptor. Briefly: Compound was evaluated for binding affinity towards Opioid receptor kappa 1 using [3H]BREM in guinea pig ileum.

What is called Ki is the equilibrium dissociation constant of an inhibitor or competing ligand from its target. Higher therefore signals a looser hold on the target.

`CN(C(=O)Cc1ccc(Cl)c(Cl)c1)[C@H]1CCCC[C@H]1N1CCCC1`: the Ki was 3730 nM in experiment [1] and 167 nM in experiment [2].
Turning to `CN(C(=O)Cc1ccc(Cl)c(Cl)c1)[C@@H]1CCCC[C@@H]1N1CCCC1`, the inhibitory constant (Ki) in experiment [1] turned out to be 14000 nM.
Take `CN(C(=O)Cc1ccc(Cl)c(Cl)c1)[C@H]1CCCC[C@@H]1N1CCCC1`: the inhibitory constant (Ki) in experiment [3] turned out to be 44 nM; in experiment [2], 0.89 nM.
On to `CN(C(=O)Cc1ccc(Cl)c(Cl)c1)C1CCCCC1N1CCCC1` (stereo not drawn), for which the figures for the Ki in experiment [3], in experiment [4] and in experiment [2] were 1300 nM, 109 nM and 299 nM, respectively.
